Measured values from ChEMBL document CHEMBL1124803, “Evolution of a series of peptidoleukotriene antagonists: synthesis and structure/activity relationships of 1,3,5-substituted indoles and indazoles” (J Med Chem, 1990).

Tested on: Cysteinyl leukotriene receptor 1 (Cavia porcellus)
Test: Dissociation constant (Kb) against LTD4

Work on COc1cc(C(=O)NS(=O)(=O)c2ccccc2)ccc1Cc1cn(C)c2ccc(NC(=O)NC3CCCC3)cc12 yielded a pKB of 9.83.
O=C(O)CCS[C@H](c1ccccc1CCCCCCCCc1ccccc1)[C@@H](O)C(=O)O was tested, and the pKB was > 8.9.
For COc1cc(C(=O)O)ccc1Cn1ncc2ccc(NC(=O)OC3CCCC3)cc21, the pKB was 7.5.
COc1cc(C(=O)O)ccc1Cn1ncc2ccc(NC(=O)CC3CCCC3)cc21 gave a pKB of 7.79.
